Assay results from patent US10583127B2, “Amine salt of (1R, 3S)-3-(5-cyano-4-phenyl-1,3- thiazol-2-ylcarbamoyl)cyclopentane carboxylic acid” (PALOBIOFARMA, S.L., priority 2017, dated 2020).

Key:
[1] = Hygroscopicity study by Dynamic Vapour Sorption (DVS) profiles; type: physicochemical
Procedure: Hygroscopicity studies of salts were carried out by preparation of Dynamic Vapour Sorption (DVS) profiles, with a TA instrument Q5000 apparatus. After an initial stabilization period (samples are pre-dried at 60° C. under vacuum), isotherms (at 25° C.) were obtained for each sample: a moisture sorption from 0 to 95% relative humidity (RH) and moisture desorption from 95% RH to dryness. Both isotherms were performed in 5% and 10% humidity steps.
The relative humidity (RH) was controlled by a mixture of wet and dry nitrogen stream. The RH was held constant until the equilibrium had been obtained (constant weight) or until the maximum time has been reached, before changing the RH to the next level.

[2] = Solubility screen assay (nephelometry); settings: 37° C., 5% DMSO: 95% PBS buffer, maximum concentration in which compounds are soluble
[3] = Oral bioavailability assay: plasma pharmacokinetics after single IV and PO administration; settings: male SD rats

With “tris(hydroxyethyl)ammonium (1R,3S)-3-((5-cyano-4-phenylthiazol-2-yl)carbamoyl)cyclopentane-1-carboxylate” the “water adsorption (weight increase) at 85% RH” value ([1]; DVS at 25° C., 85% RH) was 17.58%, the “water adsorption (weight increase) at 95% RH” value ([1]; DVS at 25° C., 95% RH) was 37.48% and the “moisture content at 25% RH” value ([1]; DVS sorption isotherm at 25° C., 25% RH) was 1.238%. The “moisture content at 55% RH” value ([1]; DVS sorption isotherm at 25° C., 55% RH) was 2.308%, the “moisture content at 75% RH (variation in the moisture content)” value (from here on “moisture content at 75% RH”) ([1]; DVS sorption isotherm at 25° C.) was 3.44% and the “moisture content at 75% RH” value ([1]; DVS sorption isotherm at 25° C., listed as (1R-3S)-3-(5-cyano-4-phenyl-1,3-thiazol-2-ylcarbamoyl)cyclopentane carboxylic ac) was 3.443%. The “moisture content at 75% RH” value ([1]; DVS sorption isotherm at 25° C., listed as triethanolamine salt) was 3.44%, the “hygroscopicity (result in words)” value ([1]; DVS, usual drug storage conditions (<75% RH)) was “moderately hygroscopic” and the Solubility [2] was 1.3 µM. The Clearance ([3]; iv 1 mg/Kg) was 4.85 mL/min/kg, the AUC last ([3]; iv 1 mg/Kg, plasma) was 3521.23 ng·h/mL and the “F % (bioavailability)” value ([3]; po 5 mg/Kg vs iv 1 mg/Kg, from AUClast) was 53%. It also gave an AUC last ([3]; po 5 mg/Kg, plasma) of 9304.80 ng·h/mL and a Cmax ([3]; po 5 mg/Kg, solution in normal saline, plasma) of 4532.19 ng/mL.
